Laboratory results: patent US5731348A, “Alkylcarboxy amino acids-modulators of the kainate receptor” (Bearsden Bio, Inc., priority 1996, dated 1998)
“Also recorded” adds a separate entry of the source.

Legend:
[1] = tested on: rat GluR4 (AMPA) receptors; settings: up to 200 μM; 300 μM AMPA; rat GluR4 in HEK 293
Excerpt: (§1) Tissue slice or whole cell electrophysiology as described by Yamada (Neurophysiology, 1994 and references therein) is used to measure agonist, partial agonist, or antagonist properties of drugs for glutamate receptors. […] This is distinct from the binding affinity.

[2] = tested on: rat GluR6 KA receptors; settings: 10 nM to 20 μM; 300 mM KA (so in the source); rat GluR6 in HEK 293
Excerpt: as §1

## C[C@H](C[C@H](N)C(=O)O)C(=O)O [compound 8, (2S,4R)-4-Methyl Glutamic Acid]
[1]
  effect on AMPA evoked currents: no effect on currents evoked by 300 μM AMPA; also recorded: did not inhibit 300 μM AMPA currents
[2]
  block of KA evoked current: completely and reversibly blocked
